Measurements reported in PubChem BioAssay AID488839 (Broad Institute, 2010).
The list shows a part of the results, in another mix than the full data. Active and inactive are the calls of the source.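 How the source made its calls: active means highest replicate inhibition of at least 50% and at least 75% of replicates reaching 50%; inconclusive means only one of the two criteria met; inactive means both criteria failed.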

Sequences of proteins named here, by UniProt entry; tags and fusion partners are left off.
UniProt Q00535, whole entry, looked up: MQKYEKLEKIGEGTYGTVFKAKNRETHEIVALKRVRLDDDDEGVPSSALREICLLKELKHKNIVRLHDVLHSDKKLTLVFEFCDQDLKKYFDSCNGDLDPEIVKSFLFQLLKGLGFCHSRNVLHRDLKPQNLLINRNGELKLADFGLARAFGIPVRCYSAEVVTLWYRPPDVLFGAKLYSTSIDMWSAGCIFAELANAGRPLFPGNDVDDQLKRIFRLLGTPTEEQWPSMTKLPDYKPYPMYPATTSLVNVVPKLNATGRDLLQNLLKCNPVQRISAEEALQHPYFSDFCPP
UniProt Q15078, whole entry, looked up: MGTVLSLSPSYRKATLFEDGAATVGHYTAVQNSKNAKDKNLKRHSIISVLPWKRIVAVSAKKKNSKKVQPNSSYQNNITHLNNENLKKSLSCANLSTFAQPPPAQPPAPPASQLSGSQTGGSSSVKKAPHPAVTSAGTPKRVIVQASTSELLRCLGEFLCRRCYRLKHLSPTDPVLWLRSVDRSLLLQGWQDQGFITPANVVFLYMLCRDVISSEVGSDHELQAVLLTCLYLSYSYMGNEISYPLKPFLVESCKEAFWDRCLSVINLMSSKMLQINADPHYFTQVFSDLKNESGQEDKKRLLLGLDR

These molecules were tested against Cyclin-dependent kinase 5 (Homo sapiens) + Cyclin-dependent kinase 5 activator 1 (Homo sapiens) (UniProt Q00535+Q15078) (assay: CDK5/p35 phosphotransfer blockade – biochemical, single concentration, primary screen (AID 488839;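 further: plate controls were DMSO neutral control for no effect and GW8510 at 10 µM for full effect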)). Details: Recombinant CDK5/p35, ADP-Glo luminescence, 60 min; at 10 µM; stronger effect = higher value.
O=C(OC1CN2CCC1CC2)C1c2ccccc2C=Cc2ccccc21 (centres undefined) was tested, and the inhibition was inactive: -1.43%. In the case of CCOC(=O)N1CCC(Nc2ccc(C)cc2)CC1, the inhibition is reported as inactive: 2.29%. For N/C(=N\O)c1c(N)no[n+]1[O-], the inhibition was inactive: -0.952%. With COc1ccc(C(=O)NCC2(N3CCOCC3)CCCCC2)cc1OC the inhibition was inactive: -0.104%. With COc1cc(C(=O)NCC2(N3CCOCC3)CCCCC2)cc(OC)c1C the inhibition was inactive: 0.106%. For O=C(NCC1(N2CCOCC2)CCCCC1)c1cc(Br)ccc1Cl, the inhibition was inactive: -4.82%. CN(C)C1(CNC(=O)c2cccc(C#N)c2)CCCCC1 was tested, and the inhibition was inactive: -1.68%. CCCN1CCC(Nc2cc(OC)cc(OC)c2)CC1 was tested, and the inhibition was inactive: 1.5%. In the case of Cc1cc(N(CCCl)CCCl)ccc1C=O, the inhibition is reported as inactive: 0.377%. In the case of c1ccc(CN2CCC(Nc3ccccc3)CC2)cc1, the inhibition is reported as inactive: -0.336%. In the case of N#Cc1ccc(C(=O)NCC2(N3CCCCC3)CCCCC2)cc1, the inhibition is reported as inactive: 1.17%. In the case of CC(C)(C)OC(=O)N1CCC(N(C(=O)c2ccccc2)c2ccc(Cl)cc2)CC1, the inhibition is reported as inactive: -2.24%. For Cn1c(=O)[nH]cc(N(CCCl)CCCl)c1=O, the inhibition was inactive: -0.268%. In the case of CN(C)c1ccc(C(=O)NCC2(N3CCCCC3)CCCCC2)cc1, the inhibition is reported as inactive: -2.64%. For O=C(NCC1(N2CCCCC2)CCCCC1)c1ccco1, the inhibition was inactive: 1.69%. For CCN1CCC(Nc2cccc(F)c2)CC1, the inhibition was inactive: 0.792%. In the case of Cc1ccccc1NC1(C#N)CCN(Cc2ccccc2)CC1, the inhibition is reported as inactive: -1.99%. In the case of Fc1ccccc1NC1CCN(Cc2ccccc2)CC1, the inhibition is reported as inactive: -0.178%. Cc1ccc(C(=O)NCC2(N3CCCCC3)CCCCC2)o1 was tested, and the inhibition was inactive: 0.295%. With Cc1ccc(NC2(C#N)CCN(Cc3ccccc3)CC2)cc1 the inhibition was inactive: 1.57%. CC(=O)N(c1ccccc1)C1CCNCC1 was tested, and the inhibition was inactive: -0.0881%. For COc1cc(OC)cc(C(=O)NCC2(N3CCCCC3)CCCCC2)c1, the inhibition was inactive: 0.793%. In the case of CN1CCC(Nc2ccc(Cl)cc2)CC1, the inhibition is reported as inactive: -0.94%. In the case of COc1cccc(C(=O)N(c2cc(C)cc(C)c2)C2CCN(C(=O)OC(C)(C)C)CC2)c1, the inhibition is reported as inactive: 1.92%. COc1cc(OC)cc(C(=O)NCC2(N3CCOCC3)CCCCC2)c1 was tested, and the inhibition was inactive: -0.175%. With CCC(CO)(C(=O)OC1CN2CCC1CC2)c1ccccc1 (centres undefined) the inhibition was inactive: 1.96%. For O=C(O)C1(Nc2ccccc2)CCN(Cc2ccccc2)CC1, the inhibition was inactive: -0.22%. In the case of CC(C)(C)OC(=O)N1CCC(Nc2ccccc2)CC1, the inhibition is reported as inactive: 1.81%. With CCCOc1ccc(C(=O)NCC2(N(C)C)CCCCC2)cc1 the inhibition was inactive: 0.0188%.
